# Patent US12668568B2, “Adamantanyl-substituted benzamide compounds and their use as P2X7 receptor antagonists” (The University of Sydney, priority 2018, dated 2026)
# Chains of the proteins cited; added tags and fusions are not shown.
# UniProt Q99572, whole entry Y155H/R270H: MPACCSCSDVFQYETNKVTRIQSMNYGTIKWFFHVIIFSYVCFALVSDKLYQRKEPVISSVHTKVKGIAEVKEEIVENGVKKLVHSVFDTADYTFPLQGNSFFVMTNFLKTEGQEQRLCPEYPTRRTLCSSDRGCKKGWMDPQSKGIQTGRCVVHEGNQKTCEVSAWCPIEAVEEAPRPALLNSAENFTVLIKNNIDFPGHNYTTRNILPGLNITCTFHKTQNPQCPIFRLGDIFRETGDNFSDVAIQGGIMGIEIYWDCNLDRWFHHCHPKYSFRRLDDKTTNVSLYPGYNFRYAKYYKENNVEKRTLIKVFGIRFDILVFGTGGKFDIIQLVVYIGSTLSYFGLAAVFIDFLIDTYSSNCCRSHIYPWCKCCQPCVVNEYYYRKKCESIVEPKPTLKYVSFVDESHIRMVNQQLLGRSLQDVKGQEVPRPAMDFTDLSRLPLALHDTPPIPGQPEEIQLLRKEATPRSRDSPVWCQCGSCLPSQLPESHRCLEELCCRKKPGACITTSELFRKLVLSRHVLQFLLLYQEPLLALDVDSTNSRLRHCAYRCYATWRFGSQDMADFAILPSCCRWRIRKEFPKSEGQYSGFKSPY
# UniProt Q99572, whole entry V76A/Y155H/R270H: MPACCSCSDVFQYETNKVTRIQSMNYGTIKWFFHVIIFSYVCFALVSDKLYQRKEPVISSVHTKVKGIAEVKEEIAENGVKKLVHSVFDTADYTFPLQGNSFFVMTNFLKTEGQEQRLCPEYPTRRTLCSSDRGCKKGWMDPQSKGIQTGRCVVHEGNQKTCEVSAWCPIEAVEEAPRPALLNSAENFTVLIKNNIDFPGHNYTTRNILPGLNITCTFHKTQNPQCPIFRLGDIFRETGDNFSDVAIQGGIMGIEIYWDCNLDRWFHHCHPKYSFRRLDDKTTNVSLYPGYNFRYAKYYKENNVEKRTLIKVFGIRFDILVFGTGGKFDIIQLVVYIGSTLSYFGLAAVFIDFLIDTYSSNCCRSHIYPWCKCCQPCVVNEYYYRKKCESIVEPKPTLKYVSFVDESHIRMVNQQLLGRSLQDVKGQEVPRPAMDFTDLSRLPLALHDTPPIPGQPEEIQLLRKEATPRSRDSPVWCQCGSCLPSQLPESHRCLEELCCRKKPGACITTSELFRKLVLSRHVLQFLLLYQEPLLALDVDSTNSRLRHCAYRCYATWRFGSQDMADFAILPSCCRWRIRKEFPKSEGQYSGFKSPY
# UniProt Q99572, whole entry R270H: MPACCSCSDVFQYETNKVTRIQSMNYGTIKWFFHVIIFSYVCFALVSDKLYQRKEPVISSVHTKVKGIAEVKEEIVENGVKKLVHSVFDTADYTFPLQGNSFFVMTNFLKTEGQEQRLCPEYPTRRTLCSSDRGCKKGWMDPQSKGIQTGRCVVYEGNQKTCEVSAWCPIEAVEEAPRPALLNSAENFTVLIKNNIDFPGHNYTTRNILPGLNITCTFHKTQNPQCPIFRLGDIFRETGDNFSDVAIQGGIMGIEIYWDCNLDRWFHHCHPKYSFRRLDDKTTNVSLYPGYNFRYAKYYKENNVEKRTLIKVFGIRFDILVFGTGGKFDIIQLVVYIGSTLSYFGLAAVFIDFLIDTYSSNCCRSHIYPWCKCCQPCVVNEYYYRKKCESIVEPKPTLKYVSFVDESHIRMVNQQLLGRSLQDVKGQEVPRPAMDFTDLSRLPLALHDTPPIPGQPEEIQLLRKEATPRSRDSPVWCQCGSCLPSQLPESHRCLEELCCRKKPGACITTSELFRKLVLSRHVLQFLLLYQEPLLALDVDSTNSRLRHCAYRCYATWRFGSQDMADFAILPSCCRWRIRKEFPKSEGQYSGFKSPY
# UniProt Q99572, whole entry Y155H: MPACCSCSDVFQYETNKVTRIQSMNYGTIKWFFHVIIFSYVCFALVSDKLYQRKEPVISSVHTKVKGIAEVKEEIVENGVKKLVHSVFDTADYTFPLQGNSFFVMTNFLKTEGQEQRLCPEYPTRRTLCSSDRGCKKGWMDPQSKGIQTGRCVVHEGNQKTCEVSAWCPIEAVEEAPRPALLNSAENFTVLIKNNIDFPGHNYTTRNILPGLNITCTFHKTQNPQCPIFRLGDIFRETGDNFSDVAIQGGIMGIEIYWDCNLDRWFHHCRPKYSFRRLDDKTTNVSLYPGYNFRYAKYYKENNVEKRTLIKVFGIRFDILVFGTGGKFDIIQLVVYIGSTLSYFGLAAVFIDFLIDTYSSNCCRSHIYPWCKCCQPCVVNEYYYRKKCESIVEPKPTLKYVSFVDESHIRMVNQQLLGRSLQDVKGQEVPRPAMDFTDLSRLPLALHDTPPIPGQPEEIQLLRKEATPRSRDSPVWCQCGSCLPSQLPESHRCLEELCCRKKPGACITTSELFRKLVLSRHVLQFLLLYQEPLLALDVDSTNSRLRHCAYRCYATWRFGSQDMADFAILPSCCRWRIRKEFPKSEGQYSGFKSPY
# UniProt Q99572, whole entry Y155H/R270H/A348T: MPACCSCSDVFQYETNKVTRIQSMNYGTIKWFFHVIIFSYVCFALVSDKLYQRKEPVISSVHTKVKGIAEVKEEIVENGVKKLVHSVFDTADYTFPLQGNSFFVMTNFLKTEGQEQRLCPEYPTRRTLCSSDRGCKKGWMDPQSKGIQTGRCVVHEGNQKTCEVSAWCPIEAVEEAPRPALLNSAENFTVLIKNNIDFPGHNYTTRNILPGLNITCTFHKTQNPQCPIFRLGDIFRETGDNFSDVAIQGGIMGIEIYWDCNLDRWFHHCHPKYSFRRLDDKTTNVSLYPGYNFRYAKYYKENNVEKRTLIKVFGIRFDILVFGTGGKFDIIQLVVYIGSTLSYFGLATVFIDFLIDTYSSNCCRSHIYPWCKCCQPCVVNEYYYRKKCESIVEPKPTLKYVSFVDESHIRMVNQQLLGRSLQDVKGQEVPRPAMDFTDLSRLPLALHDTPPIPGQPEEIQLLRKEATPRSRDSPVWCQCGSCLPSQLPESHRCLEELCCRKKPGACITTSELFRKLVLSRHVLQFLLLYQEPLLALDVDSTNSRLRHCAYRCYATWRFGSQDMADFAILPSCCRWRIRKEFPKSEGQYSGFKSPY
# UniProt Q99572, whole entry Y155H/R270H/T357S: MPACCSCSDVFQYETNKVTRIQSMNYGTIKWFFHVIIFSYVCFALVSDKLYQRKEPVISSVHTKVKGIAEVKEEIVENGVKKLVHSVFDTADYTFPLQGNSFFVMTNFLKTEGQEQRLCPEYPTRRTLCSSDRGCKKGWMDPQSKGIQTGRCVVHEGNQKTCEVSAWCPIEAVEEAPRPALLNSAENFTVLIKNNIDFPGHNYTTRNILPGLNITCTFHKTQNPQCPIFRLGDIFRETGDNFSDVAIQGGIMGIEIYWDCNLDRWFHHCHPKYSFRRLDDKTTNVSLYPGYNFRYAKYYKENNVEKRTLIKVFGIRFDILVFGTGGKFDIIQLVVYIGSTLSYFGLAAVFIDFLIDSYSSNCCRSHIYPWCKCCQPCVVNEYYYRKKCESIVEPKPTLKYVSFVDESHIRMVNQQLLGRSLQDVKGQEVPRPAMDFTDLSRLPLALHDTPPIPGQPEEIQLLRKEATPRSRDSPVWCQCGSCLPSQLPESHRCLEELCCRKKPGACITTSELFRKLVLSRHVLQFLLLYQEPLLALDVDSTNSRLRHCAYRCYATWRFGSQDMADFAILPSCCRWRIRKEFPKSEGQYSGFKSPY
# UniProt Q99572, whole entry Y155H/R270H/A348T/Q460R: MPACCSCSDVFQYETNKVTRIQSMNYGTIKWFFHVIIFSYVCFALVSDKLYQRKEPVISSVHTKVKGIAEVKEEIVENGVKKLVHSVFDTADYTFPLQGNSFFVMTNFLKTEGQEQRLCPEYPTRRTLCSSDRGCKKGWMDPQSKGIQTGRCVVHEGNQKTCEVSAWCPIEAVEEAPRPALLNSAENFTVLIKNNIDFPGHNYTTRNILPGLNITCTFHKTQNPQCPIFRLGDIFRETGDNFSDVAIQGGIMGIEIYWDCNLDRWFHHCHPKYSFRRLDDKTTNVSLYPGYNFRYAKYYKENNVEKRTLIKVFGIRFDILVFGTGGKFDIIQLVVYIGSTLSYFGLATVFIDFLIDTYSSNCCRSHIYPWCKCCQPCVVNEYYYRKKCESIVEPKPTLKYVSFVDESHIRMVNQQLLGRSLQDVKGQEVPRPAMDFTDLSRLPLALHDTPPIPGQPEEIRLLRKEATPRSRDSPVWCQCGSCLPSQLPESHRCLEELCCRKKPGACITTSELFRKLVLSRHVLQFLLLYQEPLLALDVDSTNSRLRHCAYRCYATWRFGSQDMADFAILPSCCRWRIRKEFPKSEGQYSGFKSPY
# Like-named read-outs stand apart in the source and are kept apart here.
# How the values were obtained:
# Format in all cases: cell-based
# [1] = target: hP2X7R WT (Homo sapiens, UniProt Q99572, R270H/Y155H); assay: Ethidium bromide uptake assay, HEK293 transfected with hP2X7R WT
# [2] = target: hP2X7R V76A (Homo sapiens, UniProt Q99572, R270H/V76A/Y155H); assay: Ethidium bromide uptake assay, HEK293 transfected with hP2X7R SNP V76A; conditions: agonist 100 μM BzATP
# [3] = target: hP2X7R H155T (Homo sapiens, UniProt Q99572, R270H, form not given); assay: Ethidium bromide uptake assay, HEK293 transfected with hP2X7R SNP H155T
# [4] = target: hP2X7R H270R (Homo sapiens, UniProt Q99572, Y155H); assay: Ethidium bromide uptake assay, HEK293 transfected with hP2X7R SNP H270R
# [5] = target: hP2X7R A348T (Homo sapiens, UniProt Q99572, A348T/R270H/Y155H); assay: Ethidium bromide uptake assay, HEK293 transfected with hP2X7R SNP A348T
# [6] = target: hP2X7R T357S (Homo sapiens, UniProt Q99572, R270H/T357S/Y155H); assay: Ethidium bromide uptake assay, HEK293 transfected with hP2X7R SNP T357S; conditions: agonist 100 μM BzATP
# [7] = target: hP2X7R Q460R (Homo sapiens, UniProt Q99572, A348T/Q460R, form not given); assay: Ethidium bromide uptake assay, HEK293 transfected with hP2X7R SNP Q460R
# [8] = target: hP2X7R (Homo sapiens, UniProt Q99572); assay: Yo-Pro uptake assay for P2X7R pore formation in THP-1 cells; design: Following an overnight incubation (16 h) required for THP-1 differentiation; endogenous in cells; host or cells: THP-1 (ATCC), differentiated with LPS and IFN-gamma
# [9] = 100 μM BzATP, agonist 100 μM BzATP
structure (smiles),measurement,setting,value
"COc1ccc(Cl)c(C(=O)NCC23CC4(F)CC(F)(CC(F)(C4)C2)C3)c1 [Compound 1, 2-Chloro-N-((3,5,7-trifluoroadamantan-1-yl)methyl)-5-methoxybenzamide]",IC50,[1]; [9],33 ± 6 nM
same,IC50,"[1]; 1 mM ATP, agonist 1 mM ATP",49 ± 24 nM
same,IC50,[2],24 ± 9 nM
same,IC50,"[3]; read-out: IC50 H155T, 100 μM BzATP, agonist 100 μM BzATP",20 ± 5 nM
same,IC50,"[3]; read-out: IC50 H155T, 1 mM ATP, agonist 1 mM ATP",49 ± 21 nM
same,IC50,[4]; [9],52 ± 20 nM
same,IC50,"[4]; 1 mM ATP, agonist 1 mM ATP",34 ± 17 nM
same,IC50,[5]; [9],30 ± 10 nM
same,IC50,"[5]; 1 mM ATP, agonist 1 mM ATP",48 ± 6 nM
same,IC50,[6],35 ± 12 nM
same,IC50,"[7]; read-out: IC50 Q460R, 100 μM BzATP, Q460R (plasmid contains 348T and 460R), agonist 100 μM BzATP",62 nM
same,IC50,"[7]; read-out: IC50 Q460R, 1 mM ATP, Q460R (plasmid contains 348T and 460R), agonist 1 mM ATP",55 ± 4 nM
same,IC50,"[8]; THP-1 cells, BzATP 100 μM, YO-PRO-1, mean ± standard deviation, n >4, read-out: Dye uptake IC50 hP2X7R",33.9 ± 11 nM
same,LLE,[8]; pIC50 from dye uptake and LogD from HPLC,4.64
